Values of other authors in patent publication US20070141182A1, “Combination of multiple nonteroidal antiinflammatory drugs and muscle relaxants for local treatment of musculoskeletal pain” (priority 2005, published 2007).

Tested on: COX-1 and COX-2

## CC1=C(CC(=O)O)c2cc(F)ccc2/C1=C\c1ccc([S+](C)[O-])cc1 (stereo not shown) [sulindac]
  COX-1 / COX-2 isoform selectivity of inhibition: preferentially inhibit COX-1
